2 compounds from ChEMBL document CHEMBL3886577, “N-((6-amino-pyridin-3-yl)methyl)-heteroaryl-carboxamides” (2016) can be followed below.

Amino acid sequences for entries named in this document (tags omitted). Residues count along the entry.
UniProt P03952, 20-390 limits assumed: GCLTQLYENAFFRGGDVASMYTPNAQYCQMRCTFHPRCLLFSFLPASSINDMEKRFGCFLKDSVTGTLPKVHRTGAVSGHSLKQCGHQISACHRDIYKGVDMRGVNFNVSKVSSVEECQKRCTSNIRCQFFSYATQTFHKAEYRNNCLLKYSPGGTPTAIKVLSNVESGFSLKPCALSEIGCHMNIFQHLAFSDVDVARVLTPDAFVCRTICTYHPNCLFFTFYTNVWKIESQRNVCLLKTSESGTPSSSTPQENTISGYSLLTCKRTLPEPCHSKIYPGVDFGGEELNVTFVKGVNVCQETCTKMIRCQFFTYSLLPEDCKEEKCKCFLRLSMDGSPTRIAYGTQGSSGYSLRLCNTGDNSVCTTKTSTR
UniProt P03952, 391-638 limits assumed: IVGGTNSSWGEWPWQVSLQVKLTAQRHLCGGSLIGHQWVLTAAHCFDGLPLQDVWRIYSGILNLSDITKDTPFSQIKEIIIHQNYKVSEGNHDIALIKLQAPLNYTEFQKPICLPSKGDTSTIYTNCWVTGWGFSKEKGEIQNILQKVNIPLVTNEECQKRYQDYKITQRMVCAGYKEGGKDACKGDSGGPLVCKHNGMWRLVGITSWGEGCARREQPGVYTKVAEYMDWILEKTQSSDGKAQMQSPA

The structures appear in SMILES notation.

The experiment addresses Plasma kallikrein (Homo sapiens, UniProt P03952). The experiment in a line: In-vitro Plasma Kallikrein Inhibition: Enzymatic reactions were conducted in ⿿assay buffer⿿, comprising 50 mM Hepes/NaOH at pH 7.8, 150 mM NaCl, 1 mM EDTA and 0.05% (w/v) CHAPS. For the determination of IC50 values, the assays were performed at room temperature in 384-well plates with a total assay volume of 25.25 ul per well. The test compound was dissolved in 90% (v/v) DMSO/water. For the assays, 250 nL of the 90% (v/v) DMSO/water solution or compound solution were added per well, followed by the addition of 12.5 ul protease solution (protease in assay buffer). The final assay concentration of the human plasma kallikrein was nominally 25 pM, the 11 compound concentrations in the dilution series were in the range form 1 nM to 100 uM. After 1 hour of pre-incubation at room temperature, the reactions were started by the addition of 12.5 ul substrate solution (in assay buffer, final assay concentration was 0.5 uM). After the addition of the substrate solution, the final DMSO concentration in the assay was 0.9% (v/v). The format is cell-free.

A word on the IC50: it is the concentration at which inhibition is half-maximal. `Cc1cc(N)nc(C)c1CNC(=O)c1cn(Cc2ccc(Cn3nccc3C)cc2)nn1` returned an IC50 of 0.1 nM.

`Cc1cc(C)n(Cc2ccc(Cn3cc(C(=O)NCc4c(C)cc(N)nc4C)cn3)cc2)n1` showed an IC50 of 0.134 nM.
